Assay results as given in PubChem BioAssay AID540277 (National Center for Advancing Translational Sciences (NCATS), 2011).
Some of the results follow. Results filed as inconclusive are left out. The source made the active and inactive calls. Cut-off read from the data, not from the text of the source: active = potentiation above about 80%; inconclusive = between about 30% and that limit; inactive = weaker than that.
Note: 0% is about no effect.

The chains behind the UniProt entries cited, without tags or fusion partners.
UniProt Q8NER1, whole entry: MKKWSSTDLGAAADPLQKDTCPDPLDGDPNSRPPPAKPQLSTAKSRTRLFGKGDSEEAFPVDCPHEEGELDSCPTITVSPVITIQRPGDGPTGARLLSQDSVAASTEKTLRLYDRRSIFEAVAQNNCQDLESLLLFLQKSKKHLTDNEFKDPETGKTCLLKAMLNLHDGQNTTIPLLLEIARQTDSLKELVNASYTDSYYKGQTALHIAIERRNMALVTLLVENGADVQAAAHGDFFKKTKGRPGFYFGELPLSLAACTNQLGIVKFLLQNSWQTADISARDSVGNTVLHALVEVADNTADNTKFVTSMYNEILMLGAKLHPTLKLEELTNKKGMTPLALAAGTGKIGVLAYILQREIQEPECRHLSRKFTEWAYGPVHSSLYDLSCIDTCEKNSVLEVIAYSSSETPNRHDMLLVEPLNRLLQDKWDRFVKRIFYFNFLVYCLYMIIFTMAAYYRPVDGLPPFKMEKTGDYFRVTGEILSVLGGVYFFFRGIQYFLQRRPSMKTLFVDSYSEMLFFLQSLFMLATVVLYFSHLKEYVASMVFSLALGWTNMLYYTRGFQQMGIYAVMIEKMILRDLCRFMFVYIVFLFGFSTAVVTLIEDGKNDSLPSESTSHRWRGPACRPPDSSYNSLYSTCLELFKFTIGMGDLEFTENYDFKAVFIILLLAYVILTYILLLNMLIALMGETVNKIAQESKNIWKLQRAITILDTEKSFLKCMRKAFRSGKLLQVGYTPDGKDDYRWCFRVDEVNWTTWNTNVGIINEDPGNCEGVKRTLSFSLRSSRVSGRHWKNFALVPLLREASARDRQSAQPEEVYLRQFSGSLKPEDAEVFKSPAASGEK

The compounds below were run against Transient receptor potential cation channel subfamily V member 1 (Homo sapiens) (UniProt Q8NER1) (assay: HTS Assay for Compounds that Act as Potentiators of the Vanilloid Receptor 1). Conditions: TRPV1-expressing cells, Fluo-8 calcium influx, capsaicin EC20 potentiation; at 8.33 µM; active compounds read high.
Excerpt: The transient receptor potential ion channel, family V, number 1, (TRPV1) is one of the most important molecular transducers of painful stimuli and a potential target for analgesic drug development. Although recent clinical trials with orthosteric antagonists have not produced a successful drug because of a hyperthermia side effect and their tendency to block thermal noxious pain, this ion channel is undeniably well placed in the pain pathway, and the idea of blocking pain signals before they enter the CNS is an excellent concept and of proven efficacy when TRPV1 agonists are used. We propose a new approach involving allosteric modulation to impose an activity-dependent constraint within the context of inflammation and tissue damage that would alter the responsiveness of the channel in a way that an orthosteric vanilloid antagonist cannot achieve. We believe that the allosteric modulator approach has not been explored for this target. The main goal of this proposal is to identify additional, new, potent allosteric modulators of TRPV1 that can be used to investigate TRPV1 function. Our recent report provides evidence of proof of concept, but the compounds are just at the edge of utility in terms of potency. […] The question of whether they can be used as analgesic agents is complex, but if suitable compounds are identified then testing for analgesic properties will be conducted. NIH Chemical Genomics Center [NCGC] NIH Molecular Libraries Probe Centers Network [MLPCN] MLPCN Grant: MH089480-1A1 Assay Submitter (PI): Michael Iadarola, National Institute of Dental and Cranofacial Research
Upon TRPV1 activation in TRPV1 cells, the channel opens and extracellular cations flow through the channel into the cytosol. A calcium binding dye (Fluo-8) becomes fluorescent when bound to calcium. This dye is pre-loaded into cells and is used as a marker for calcium influx. The amount of accumulated calcium is precisely quantified using the FDSS kinetic reader and the calcium dye. For the HTS assay, freshly prepared cells are plated at a density of 2000/well in 3 ul medium in 1536-well plates and cultured overnight at 35.5C. Cells will be loaded with 1 ul of the homogeneous calcium dye (ABD Bioquest) at room temperature for 40 to 90 minutes. Plates will be loaded into the FDSS kinetic reader and a 1 sec / cycle for 10 second baseline signal will be measured. Compound library will then be added with a pintool at 23 nl and measured kinetically for 3 minutes. This portion of the read is considered the agonist portion of the screen. Following the 3 minutes of incubation, an on board pipettor will deliver 1 ul of capsaicin for a final concentration equal to the EC20. Signal will be measured kinetically for an additional 2 minutes. This portion of the read is considered the allosteric enhancer portion of the screen. The FDSS reader has a standard filter set capable of measuring calcium bound Fluo-8 (ex=480 and em=520 nm).
With `CCN(N=Nc1nonc1N)c1nonc1N` the potentiation was inactive: 8.71%.
For `CP(=O)(Nc1ccc(Cl)cc1Cl)Oc1ccccc1` (centres undefined), the potentiation was inactive: 9.08%.
With `CP(=O)(OCCOc1ccccc1)OCCOc1ccccc1` the potentiation was inactive: 10.5%.
For `Nc1cccc2ccc([As](=O)(O)O)cc12`, the potentiation was inactive: -4.34%.
For `Cc1nc2ccc3ccccc3c2o1.O=[N+]([O-])c1cc([N+](=O)[O-])c(O)c([N+](=O)[O-])c1`, the potentiation was inactive: 0.0997%.
In the case of `O=[N+]([O-])c1cc([N+](=O)[O-])c(CCN2CCOCC2)c([N+](=O)[O-])c1`, the potentiation is reported as inactive: 7.83%.
In the case of `CCOC(=O)c1ccc(NP(C)(=O)Oc2ccc(F)cc2)cc1` (centres undefined), the potentiation is reported as inactive: -3.78%.
`COc1ccc(OP(C)(=O)Nc2ccc(SC(F)(F)F)cc2)cc1` (centres undefined) was tested, and the potentiation was inactive: -6.82%.
`CCNC(=S)/N=C(\N)N[N+](=O)[O-]` was tested, and the potentiation was inactive: 1.14%.
For `O=C(NC1CCS(=O)(=O)C1)NP(=S)(Oc1ccccc1)Oc1ccccc1` (centres undefined), the potentiation was inactive: -1.56%.
`Cc1ccc(NP(=O)(Oc2cccc(C)c2)Oc2cccc(C)c2)nc1` was tested, and the potentiation was inactive: -29%.
For `CCOC(=O)NC(Sc1ccccc1)C(Cl)(Cl)Cl` (centres undefined), the potentiation was inactive: 15.4%.
`c1ccc(-c2nn[nH]n2)c(-c2nn[nH]n2)c1` was tested, and the potentiation was inactive: 10.1%.
In the case of `CP(=O)(Nc1ccccc1)Oc1ccc(F)cc1` (centres undefined), the potentiation is reported as inactive: -9.84%.
With `O=c1c2cc([N+](=O)[O-])ccc2[nH]c2c([N+](=O)[O-])cc([N+](=O)[O-])cc12` the potentiation was inactive: -18.8%.
`CCCCCOc1ccc(NP(C)(=O)Oc2ccc(Cl)cc2Cl)cc1` (centres undefined) was tested, and the potentiation was inactive: -7.47%.
With `CN(C)C(=O)Oc1noc2ccccc12` the potentiation was inactive: -10.2%.
In the case of `Cc1ccccc1OP(=O)(Nc1ccccn1)Oc1ccccc1C`, the potentiation is reported as inactive: 3.41%.
In the case of `CC(=O)NC(SC(=S)N(CC(C)C)CC(C)C)C(Cl)(Cl)Cl` (centres undefined), the potentiation is reported as inactive: 8.91%.
`Cc1ccc(OP(=O)(Nc2ccccn2)Oc2ccc(C)cc2)cc1` was tested, and the potentiation was inactive: -4.44%.
In the case of `COC(=O)c1cc2c(s1)N=C(c1ccccc1)N(C)P2(=O)N1CCOCC1` (centres undefined), the potentiation is reported as inactive: 0.687%.
For `CCN(CC)CCCOC(=O)C(O)(c1ccccc1)C1CCCCC1` (centres undefined), the potentiation was inactive: 0.385%.
For `CCC(=O)N1C2C3N(C(=O)CC)C1C1N(C(=O)CC)C(C(N1C(=O)CC)N3C(=O)CC)N2C(=O)CC`, the potentiation was inactive: 2.43%.
With `O=C(OC1CN2CCC1CC2)c1ccccc1` (centres undefined) the potentiation was inactive: 2.5%.
For `CP(=O)(Nc1ccccc1F)Oc1ccccc1` (centres undefined), the potentiation was inactive: 2.38%.
For `CC(C)c1ccc(OP(C)(=O)Nc2ccc(SC(F)(F)F)cc2)cc1` (centres undefined), the potentiation was inactive: 9.03%.
`CC(C)(C)C(=O)NC(Sc1ccccc1)C(Cl)(Cl)Cl` (centres undefined) was tested, and the potentiation was inactive: -1.95%.
With `CCOc1ccc(C2=NCC(CBr)S2)cc1` (centres undefined) the potentiation was inactive: 5.29%.
With `O=P1(Nc2nc3ccc(Cl)cc3s2)COc2ccccc2O1` (centres undefined) the potentiation was inactive: 17.8%.
`CC(=O)Nc1ccc(Oc2c([N+](=O)[O-])cc([N+](=O)[O-])cc2[N+](=O)[O-])cc1` was tested, and the potentiation was inactive: -26.3%.
`CC(=O)Nc1ccc([As](=O)(O)O)c(O)c1` was tested, and the potentiation was inactive: -1.09%.
For `CC(=O)c1ccc(N2CC2c2ccncc2)cc1` (centres undefined), the potentiation was inactive: 11.8%.
With `C[C@H]1OP(=O)(Oc2ccccc2)C[C@@H]2O[C@@H]21` (some centres undefined) the potentiation was inactive: 20.9%.
For `C[C@@H]1C=CCP(=O)(Oc2ccccc2)O1` (some centres undefined), the potentiation was inactive: 0.45%.
For `Cc1ccccc1CN(C)C(=O)COC(=O)C(O)(c1ccccc1)c1ccccc1`, the potentiation was inactive: 18.6%.
`O=C(OCCN1CCN(CCOCc2ccccc2)CC1)C(O)(c1ccccc1)c1ccccc1` was tested, and the potentiation was inactive: 3.79%.
For `CCOP(C)(=S)SCC(=O)NC(C)(CC)C(=O)O` (centres undefined), the potentiation was inactive: -13%.
`c1nnnn1CCn1cnnn1` was tested, and the potentiation was inactive: -3.26%.
`CP(=O)(Nc1ccc(SC(F)(F)F)cc1)Oc1ccc(F)cc1` (centres undefined) was tested, and the potentiation was inactive: -5.27%.
For `CC(C)C(=O)NC(Sc1ccccc1)C(Cl)(Cl)Cl` (centres undefined), the potentiation was inactive: 0.884%.
In the case of `O=P(Nc1nccs1)(c1ccccc1)c1ccccc1`, the potentiation is reported as inactive: -22.6%.
In the case of `Cc1ccccc1NP(C)(=O)Nc1ccccc1C`, the potentiation is reported as inactive: -4.8%.
`CP(=O)(Nc1ccc2c(c1)OCCO2)Oc1ccccc1` (centres undefined) was tested, and the potentiation was inactive: -12.4%.
For `C[C@H]1OP(=O)(Oc2ccccc2)[C@H](O)[C@H](O)[C@H]1N=[N+]=[N-]` (some centres undefined), the potentiation was inactive: 16.8%.
With `CN(C)CCOC(=O)C(O)(c1ccccc1)C1CCCCC1` (centres undefined) the potentiation was inactive: 5.52%.
In the case of `O=P(Nc1nc2ccccc2s1)(c1ccccc1)c1ccccc1`, the potentiation is reported as inactive: 2.33%.
In the case of `COc1ccc(NP(C)(=O)Oc2ccccc2OC)cc1` (centres undefined), the potentiation is reported as inactive: 4.02%.
`COc1ccc(OP(C)(=O)Nc2cccc(Br)c2)cc1` (centres undefined) was tested, and the potentiation was inactive: -0.792%.
`O=P(Nc1ccccn1)(c1ccc(Br)cc1)c1ccc(Br)cc1` was tested, and the potentiation was inactive: 12.3%.
In the case of `CN(C)C1(CNC(=O)c2ccc(Cl)c(S(N)(=O)=O)c2)CCCCC1`, the potentiation is reported as inactive: 3.76%.
For `C(Cc1nn[nH]n1)Cc1nn[nH]n1`, the potentiation was inactive: -4.34%.
In the case of `Nc1ccc([As](=O)(O)c2ccc([N+](=O)[O-])cc2)cc1`, the potentiation is reported as inactive: -7.21%.
With `O=C(OC1CN2CCC1CC2)c1cccc(Cl)c1` (centres undefined) the potentiation was inactive: 8.27%.
For `O=[N+]([O-])c1ccc(O)c(/C=N/Nc2ccc([N+](=O)[O-])cc2[N+](=O)[O-])c1`, the potentiation was inactive: 7.03%.
For `CC(=O)NC(SC(=S)N(C)C)C(Cl)(Cl)Cl` (centres undefined), the potentiation was inactive: 8.31%.
With `O=[N+]([O-])c1ccc(OP2(=O)COCCO2)cc1` (centres undefined) the potentiation was inactive: 20.5%.
For `O=[N+]([O-])c1ncn(CCn2cnc([N+](=O)[O-])n2)n1`, the potentiation was inactive: -6.57%.
`Cc1cc(-c2cccc3ccccc23)c(C)cn1.O=[N+]([O-])c1cc([N+](=O)[O-])c(O)c([N+](=O)[O-])c1` was tested, and the potentiation was inactive: -8.77%.
`O=[As](O)(c1ccccc1)c1ccc(O)cc1` was tested, and the potentiation was inactive: -1.86%.
